Test results: publication PMC11990504

Target: tKeima (UniProt Q1JV72)
Assay: crystal structure; tKeima crystals grown spontaneously at 4 °C in 10 mM Tris-HCl pH 8.0, 200 mM NaCl, then soaked repeatedly in 0.1 M sodium acetate pH 4.0, 200 mM NaCl; data at 100 K; two molecules in the asymmetric unit, tetramer formed with symmetry mates; interfaces analysed with PISA

stoichiometry N: 4
Substance: tKeima (from UniProt Q1JV72 1-222) (natural protein)
